Entries after “also recorded” stand apart in the source; their conditions may differ.
Target: T1, VMAT2 (Rattus norvegicus, UniProt Q01827)
T1 construct: host or cells: HEK GnTI- (nonglycosylating) cells stably expressing VMAT2
Assay: Fluorescent microscopy probe uptake assay in VMAT2/HEK cells
Format: cell-based
Conditions: 1 μM inhibitor pre-incubation 1 hour, then 20 μM probe 30 min
Procedure: HEK GNTI^− (nonglycosylating) cell line stably expressing VMAT2 (VMAT2-HEK) and HEK GNU^− cell line stably transected with TetR (HEK) to serve as a control were kindly provided by the laboratory of Robert Edwards at UCSF. Cells were grown in DMEM+Glutamax (Invitrogen #10569) with 10% fetal bovine serum (FBS) (Atlanta Biologicals), 100 U/ml penicillin (Nitrogen), and 100 μg/ml streptomycin (Invitrogen). […] After 5 days, the cells looked fibroblastic and had reached ˜70% confluence. The medium was removed by aspiration, and the cells were washed with PBS (2 mL per well). […] Then, the probe uptake was initiated by adding 0.1 mL of experimental media containing probe (220 μM, prepared from 10 mM stock solution in DMSO, final conc.=20 μM in the uptake assay). After incubating at 37° C. for 30 minutes, the media was removed by aspiration, and the cells were washed with PBS (2 mL per well) and treated with probe-free experimental media. Fluorescence images were taken by using Leica FW 4000 equipped with Chroma custom filter cube (ex=350/50 nm, em=460/50 nm) and Hamamatsu digital camera C4742-95. The fluorescent images and bright field images were acquired for 2000 ms and 37 ms, respectively. All images were adjusted using the same contrast and brightness level using Images J (National Institute of Health).

Chains of the proteins cited; added tags and fusions are not shown.
UniProt Q01827, whole entry: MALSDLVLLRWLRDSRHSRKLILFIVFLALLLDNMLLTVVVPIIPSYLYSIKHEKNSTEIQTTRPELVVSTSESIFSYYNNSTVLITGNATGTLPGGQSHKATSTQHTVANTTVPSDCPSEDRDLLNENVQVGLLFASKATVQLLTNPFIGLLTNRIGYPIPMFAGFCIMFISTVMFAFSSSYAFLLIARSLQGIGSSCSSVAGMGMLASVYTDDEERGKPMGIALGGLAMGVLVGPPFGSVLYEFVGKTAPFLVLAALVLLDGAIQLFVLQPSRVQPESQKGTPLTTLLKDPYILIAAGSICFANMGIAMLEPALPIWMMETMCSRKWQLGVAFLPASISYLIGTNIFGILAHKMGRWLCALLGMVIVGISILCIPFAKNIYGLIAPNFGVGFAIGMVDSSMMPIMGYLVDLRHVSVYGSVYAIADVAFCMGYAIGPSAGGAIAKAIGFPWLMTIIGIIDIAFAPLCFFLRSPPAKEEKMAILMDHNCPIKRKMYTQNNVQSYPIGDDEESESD

| SMILES | Effect of VMAT2 inhibitor on probe uptake in VMAT2-HEK cells | Effect of VMAT2 inhibitor on probe uptake in VMAT2-HEK cells (listed as TBZ) |
| --- | --- | --- |
| COC(=O)[C@H]1[C@H]2C[C@@H]3c4[nH]c5cc(OC)ccc5c4CCN3C[C@H]2C[C@@H](OC(=O)c2cc(OC)c(OC)c(OC)c2)[C@@H]1OC [reserpine, reference compound] | strongly diminished; also recorded: abolished the uptake |  |
| COc1cc2c(cc1OC)C1CC(=O)C(CC(C)C)CN1CC2 (stereo not drawn) [tetrabenazine, reference compound] | strongly diminished; also recorded: abolished | abolished the uptake |
